From patent publication US20200339537A1, “NOVEL COMPOUND AS INHIBITOR AGAINST BINDING OF PF34 PROTEIN TO NEDD4-1 PROTEIN AND USE THEREOF” (ENHANCEDBIO INC., priority 2017, published 2020)

Target: T1, binding between p34 protein and NEDD4-1 protein (Homo sapiens, UniProt P46934+Q9UHV2)
T1 construct: FLAG or 6xHis (known only from the detection antibodies)
T1 sequence (P46934 1-1319): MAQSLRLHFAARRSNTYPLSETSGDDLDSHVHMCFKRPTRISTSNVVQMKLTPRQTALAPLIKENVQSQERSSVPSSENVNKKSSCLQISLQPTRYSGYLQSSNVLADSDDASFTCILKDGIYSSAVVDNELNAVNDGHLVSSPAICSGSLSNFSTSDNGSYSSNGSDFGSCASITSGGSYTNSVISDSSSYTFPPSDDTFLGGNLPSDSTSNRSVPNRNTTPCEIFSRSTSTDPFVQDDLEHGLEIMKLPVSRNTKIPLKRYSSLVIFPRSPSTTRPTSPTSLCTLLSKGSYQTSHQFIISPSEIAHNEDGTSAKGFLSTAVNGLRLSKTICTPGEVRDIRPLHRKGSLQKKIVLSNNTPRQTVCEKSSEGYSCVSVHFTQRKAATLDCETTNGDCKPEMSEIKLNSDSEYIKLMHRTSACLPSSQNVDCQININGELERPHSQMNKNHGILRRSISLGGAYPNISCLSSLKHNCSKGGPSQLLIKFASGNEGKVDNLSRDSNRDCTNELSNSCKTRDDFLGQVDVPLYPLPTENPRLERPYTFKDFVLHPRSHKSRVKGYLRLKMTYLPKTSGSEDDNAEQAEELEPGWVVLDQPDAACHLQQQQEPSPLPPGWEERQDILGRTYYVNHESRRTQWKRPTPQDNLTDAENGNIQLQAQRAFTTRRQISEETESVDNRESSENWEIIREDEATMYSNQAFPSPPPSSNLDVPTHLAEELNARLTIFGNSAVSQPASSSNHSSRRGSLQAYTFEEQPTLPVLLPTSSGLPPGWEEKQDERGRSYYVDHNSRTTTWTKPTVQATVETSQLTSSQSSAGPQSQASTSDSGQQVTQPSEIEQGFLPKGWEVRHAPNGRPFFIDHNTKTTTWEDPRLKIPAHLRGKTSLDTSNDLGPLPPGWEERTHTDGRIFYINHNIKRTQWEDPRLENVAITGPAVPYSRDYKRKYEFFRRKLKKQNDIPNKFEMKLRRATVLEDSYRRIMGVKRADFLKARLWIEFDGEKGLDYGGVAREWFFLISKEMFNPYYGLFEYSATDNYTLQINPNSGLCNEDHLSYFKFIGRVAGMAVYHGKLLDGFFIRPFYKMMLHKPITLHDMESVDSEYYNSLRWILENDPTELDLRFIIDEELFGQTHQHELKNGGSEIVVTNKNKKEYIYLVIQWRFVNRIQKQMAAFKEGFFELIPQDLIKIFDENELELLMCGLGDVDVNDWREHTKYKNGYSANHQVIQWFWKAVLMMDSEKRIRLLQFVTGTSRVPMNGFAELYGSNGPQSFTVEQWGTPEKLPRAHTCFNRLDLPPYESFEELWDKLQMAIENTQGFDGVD
T1 sequence (Q9UHV2 1-236): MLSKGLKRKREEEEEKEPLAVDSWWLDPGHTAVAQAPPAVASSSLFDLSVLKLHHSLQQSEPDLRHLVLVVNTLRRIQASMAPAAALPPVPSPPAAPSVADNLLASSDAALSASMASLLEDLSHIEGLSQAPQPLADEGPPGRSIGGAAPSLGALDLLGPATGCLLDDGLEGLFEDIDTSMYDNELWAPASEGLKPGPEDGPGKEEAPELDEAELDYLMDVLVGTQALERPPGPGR
Assay: Inhibitory activity on binding between p34 and NEDD4-1, FRET (HTRF) assay
Conditions: pH 7.4, compound 10 μM; 1×PBS pH 7.4, 0.1% BSA, 2% DMSO; 384-well
Procedure: Inhibitory activity of the compound on binding between p34 and NEDD4-1 was evaluated using p34 protein and NEDD4-1 protein based on the HTRF technology developed by Cisbio. In this assay, a fluorescence resonance energy transfer (FRET) signal was measured in the presence of terbium-labeled anti-FLAG antibody and d2-labeled anti-6XHis antibody. Experiments were performed in 384-well plates under a condition of 1×PBS pH 7.4, 0.1% BSA, and 2% DMSO. A background signal was measured in the absence of the p34-NEDD4-1 proteins, and a non-inhibiting signal was measured with addition of only a solvent (2% DMSO). Then, the compound to be evaluated was applied to give a final concentration of 10 μM. Subsequently, inhibitory activity of the compound on p34-NEDD4-1 was calculated in %.

SMILES: O=C(NCc1nc2cc(F)c(F)cc2[nH]1)N1CCN(Cc2c[nH]c3ccc(Cl)cc23)CC1 [Example 62, 4-((5-Chloro-1H-indol-3-yl)methyl)-N-((5,6-difluoro-1H-benzo[d]imidazol-2-yl)methyl)piperazine-1-carboxamide]
- inhibition at 10 µM: 30.2%
